Experimental data from paper PMC2783557 (Brain, behavior, and immunity, 2009).

Tested on: Male CD-1 mice
Experiment: I-Aβ brain efflux after icv injection
Assay type: in vivo, mouse
Conditions: indomethacin 20 mg/kg ip 30 min before LPS 3 mg/kg; n = 6-10 mice/group

COc1ccc2c(c1)c(CC(=O)O)c(C)n2C(=O)c1ccc(Cl)cc1 [Indomethacin]
LPS effect on efflux of I-Aβ: blocked
